## AlphaSeq binding of Ab-14 heavy chain variants to a spike HR2 peptide

The target is the same throughout: PDVDLGDISGINAS, from the HR2 region of SARS-CoV-2 spike.

Each scFv is VH, the linker GGGGSGGGGSGGGGS, VL, as in the parent Ab-14, and differs from it in the CDRs of the heavy chain only.
VH: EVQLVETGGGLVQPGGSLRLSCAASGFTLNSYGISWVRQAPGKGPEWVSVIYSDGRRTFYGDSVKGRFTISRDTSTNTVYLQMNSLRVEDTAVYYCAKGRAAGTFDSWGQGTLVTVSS
VL: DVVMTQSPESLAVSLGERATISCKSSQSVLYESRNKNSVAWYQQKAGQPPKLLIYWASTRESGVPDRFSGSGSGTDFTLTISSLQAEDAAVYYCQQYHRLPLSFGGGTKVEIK

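The parent was found by panning a naive human phage display library on the peptide. Designed CDR sequences, proposed from the first random library and measured here. Group labels follow the data file (Ctrl: baseline library sampled from a position-specific scoring matrix, with some repeated check sequences; Rand: our label for a block that the file lists under HC and that is probably the random mutants of the ten best first-round binders; En: ensemble of fine-tuned language models; GP: Gaussian process model; GPLM: also part of the Gaussian process libraries; HC: hill climbing; Gen: genetic algorithm; Gibbs: Gibbs sampling; a sequence that several methods proposed may carry one label only). Affinity was read by AlphaSeq, a pooled yeast mating assay with surface-displayed partners. Mating (16 h, 30 °C) was followed by selection of diploids and sequencing of their barcodes. Each replicate has its own calibration line, from reference interactions of the BCL2 family. Each pool was mated in six replicate cultures.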

Changes read parent residue, position, new residue, counted from the first residue of the VH shown.
This list holds designs with at most six substitutions.
Affinities are written as log10 Kd with Kd in nM; a lower number is a better binder.
Replicates are averaged; those with no signal do not enter the mean.
Where no diploid with the target was found in any replicate, the entry reads "nd": below detection, most likely a poor binder, though not proof of it.

Variant T28K+S53A [GPLM_Gen] showed -0.05 (6 of 6 replicates; controls 0 of 18).
Variant T28E+S31D+S107I [GP_HC] showed 0.61 (6 of 6 replicates; controls 0 of 18).
Variant T28E+A101T+S107E [GP_Gen] showed 0.85 (5 of 6 replicates; controls 0 of 18).
Variant T28S+S31D+G61H+A101T [GPLM_Gen] showed 0.13 (6 of 6 replicates; controls 1 of 18).
Variant G61L+R100S+A102K [Ctrl] showed nd (0 of 6 replicates; controls 0 of 18).
Variant R56V+A101V [GPLM_Gen] showed 0.97 (6 of 6 replicates; controls 0 of 18).
Variant T28D+S53A+R100T [GP_HC] showed nd (0 of 6 replicates; controls 0 of 18).
Variant R100V+D106K [Ctrl] showed nd (0 of 6 replicates; controls 1 of 18).
Variant F59E+S107W [Ctrl] showed nd (0 of 6 replicates; controls 0 of 18).
Variant T28D+S63Q+R100K [GPLM_Gen] showed 0.40 (6 of 6 replicates; controls 1 of 18).
Variant T28S+G61I+R100H+A101Q [GP_Gibbs] showed 0.46 (6 of 6 replicates; controls 0 of 18).
Variant S31D+R56K+F59Q+G61C [GP_HC] showed 1.23 (5 of 6 replicates; controls 0 of 18).
Variant S31E+R56K+D106I [GPLM_HC] showed nd (0 of 6 replicates; controls 0 of 18).
Variant N30D+F59A+G61H+G103H+T104L [Ctrl] showed nd (0 of 6 replicates; controls 0 of 18).
Variant R56K+G61S+R100K+S107T [GP_Gen] showed 0.55 (6 of 6 replicates; controls 1 of 18).
Variant T28D+R56K+R100K+S107L [GP_Gibbs] showed 0.41 (6 of 6 replicates; controls 0 of 18).
Variant T28S+S31E+G61S+R100P+S107R [GP_HC] showed 3.13 (1 of 6 replicates; controls 0 of 18).
Variant T28D+G61S+T104S [GP_HC] showed 0.80 (4 of 6 replicates; controls 0 of 18).
Variant S31E+G99S+G103V+S107Q [Rand] showed nd (0 of 6 replicates; controls 0 of 18).
Variant S31E+G103V+D106C+S107V [GPLM_HC] showed nd (0 of 6 replicates; controls 0 of 18).
Variant T28H+G61D+R100Q+A101T [GPLM_Gen] showed 0.56 (6 of 6 replicates; controls 1 of 18).
Variant T28N+S31E+S53A+G61A+R100E+S107L [En_HC] showed 0.56 (6 of 6 replicates; controls 0 of 18).
Variant N30L+G33S+G61S+D106V [Ctrl] showed nd (0 of 6 replicates; controls 0 of 18).
Variant S31E+G61D+A101V [GP_HC] showed -0.10 (6 of 6 replicates; controls 0 of 18).
Variant T28A+S31D+F59Q+G61I [GPLM_HC] showed 1.09 (6 of 6 replicates; controls 0 of 18).
Variant T28D+R56L+A101T [GPLM_HC] showed 0.01 (6 of 6 replicates; controls 0 of 18).
Variant F27M+S53A+G61S [GP_HC] showed 0.03 (6 of 6 replicates; controls 0 of 18).
Variant S31M+G61A+K65V [Ctrl] showed 1.42 (6 of 6 replicates; controls 0 of 18).
Variant T28S+G61D+R100W [GPLM_Gen] showed 1.54 (4 of 6 replicates; controls 0 of 18).
Variant T28D+S31E+G103D+S107Q [GP_HC] showed nd (0 of 6 replicates; controls 1 of 18).
Variant T28D+F59S+T104L [Ctrl] showed nd (0 of 6 replicates; controls 1 of 18).
Variant N30E+D62Q+A102C [Ctrl] showed nd (0 of 6 replicates; controls 0 of 18).
Variant R100Q+A101I [Ctrl+GPLM_Gibbs] showed 1.38 (11 of 12 replicates; controls 0 of 36).
Variant S31D+G61K+D106S [GP_HC] showed 2.13 (5 of 6 replicates; controls 0 of 18).
Variant S31E+D62N+A101T+S107A [GP_Gibbs] showed 0.56 (5 of 6 replicates; controls 1 of 18).
Variant T28E+S31E+R100H [GP_Gen] showed 0.99 (5 of 6 replicates; controls 0 of 18).
Variant T28Q+A101Q+S107T [GP_Gen] showed 1.24 (3 of 6 replicates; controls 0 of 18).
Variant G61A+S63N+R100Q+S107T [GP_Gibbs] showed 1.20 (5 of 6 replicates; controls 0 of 18).
Variant K65L+R100Q [Ctrl] showed 1.18 (3 of 6 replicates; controls 1 of 18).

The 5 strongest on average among those seen in every replicate, once more:

| changes | group | mean, log10 nM | replicates with signal | control signals |
|---|---|---|---|---|
| S31E+G61D+A101V | GP_HC | -0.10 | 6/6 | 0/18 |
| T28K+S53A | GPLM_Gen | -0.05 | 6/6 | 0/18 |
| T28D+R56L+A101T | GPLM_HC | 0.01 | 6/6 | 0/18 |
| F27M+S53A+G61S | GP_HC | 0.03 | 6/6 | 0/18 |
| T28S+S31D+G61H+A101T | GPLM_Gen | 0.13 | 6/6 | 1/18 |

A sequence measured in both rounds can read differently, since the two assays cover different ranges.
Background: pairings of all heavy chain designs with three empty control strains gave a value in 1% of cases (median 2.08, 5th percentile 0.84). Values in that range, when seen in few replicates, are hard to tell from nonspecific mating. The control count says in how many pairings with the empty strains this scFv gave a signal.
Where one sequence has several entries in the source, the replicates are pooled.
In the paper, a design with two or fewer of six values counts as a poor binder.
Of ten entries with the parent sequence, four were seen in most replicates (averages 0.34 to 2.37), three in one and three in none, so single entries are noisy.

The measurements come from Li et al. 2023 (doi:10.1038/s41467-023-39022-2) through the FLAb antibody collection.